Laboratory results reported in US7214684B2, “Methods for the treatment of allergic rhinitis” (Sepracor Inc., priority 1994, dated 2007).

Sequences of proteins named here, by UniProt entry; tags and fusion partners are left off.
UniProt P31389, whole entry: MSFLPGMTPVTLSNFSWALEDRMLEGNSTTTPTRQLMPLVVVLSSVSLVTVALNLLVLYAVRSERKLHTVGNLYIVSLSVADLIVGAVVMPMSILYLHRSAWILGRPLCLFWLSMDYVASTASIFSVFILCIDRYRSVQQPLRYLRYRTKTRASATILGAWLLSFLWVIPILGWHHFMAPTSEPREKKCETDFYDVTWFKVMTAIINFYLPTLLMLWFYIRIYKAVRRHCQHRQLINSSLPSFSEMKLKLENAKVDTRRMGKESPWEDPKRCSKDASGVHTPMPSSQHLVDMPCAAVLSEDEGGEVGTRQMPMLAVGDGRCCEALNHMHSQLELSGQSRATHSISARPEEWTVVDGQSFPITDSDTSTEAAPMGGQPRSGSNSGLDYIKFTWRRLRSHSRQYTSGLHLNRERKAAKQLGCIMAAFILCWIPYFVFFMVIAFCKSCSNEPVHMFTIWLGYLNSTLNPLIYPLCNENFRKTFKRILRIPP

Target: histamine H-1 receptors (Cavia porcellus, UniProt P31389)
Conditions: Hill coefficient of the binding curve

Compound: COc1ccc(CN(CCN(C)C)c2ccccn2)cc1 [Pyrilamine]
- Inhibition of Pyrilamine Binding at H-1 Receptor, (nH): (0.98)
